Measured values: ChEMBL document CHEMBL1156871, “Nonpeptidic tetrafluorophenoxymethyl ketone cruzain inhibitors as promising new leads for Chagas disease chemotherapy” (J Med Chem, 2010)

By UniProt entry, the sequences of proteins in these tests, tags left out. Where a name states a change or a piece, a line headed by the entry shows the natural chain unless it says otherwise.
UniProt P25779: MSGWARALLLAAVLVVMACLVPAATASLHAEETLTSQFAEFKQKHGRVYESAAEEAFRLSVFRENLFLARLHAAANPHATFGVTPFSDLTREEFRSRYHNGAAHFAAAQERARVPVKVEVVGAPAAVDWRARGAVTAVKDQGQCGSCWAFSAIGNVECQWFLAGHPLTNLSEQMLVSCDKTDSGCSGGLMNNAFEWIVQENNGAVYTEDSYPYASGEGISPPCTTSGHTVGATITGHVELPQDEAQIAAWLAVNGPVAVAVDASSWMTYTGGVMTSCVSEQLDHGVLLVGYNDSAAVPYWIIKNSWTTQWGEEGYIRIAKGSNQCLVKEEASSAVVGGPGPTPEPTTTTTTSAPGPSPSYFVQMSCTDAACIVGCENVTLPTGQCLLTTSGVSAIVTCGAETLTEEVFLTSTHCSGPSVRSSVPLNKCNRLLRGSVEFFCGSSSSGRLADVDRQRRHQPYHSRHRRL

Biological target: Cruzipain (Trypanosoma cruzi) (UniProt P25779)
Assay: Inhibition of Trypanosoma cruzi cruzain

## CCCCC(C(=O)COc1c(F)c(F)cc(F)c1F)n1cc([C@@](C)(NCc2ccc3ncccc3c2)C2CCCC2)nn1 (stereo partly specified)
  Kinact: 0.025 s⁻¹
